Data on five compounds can be found in patent publication US10800739B2, “4-carboxamido-isoindolinone derivatives as selective PARP-1 inhibitors” (NERVIANO MEDICAL SCIENCES S.r.l, priority 2012, dated 2020).

Amino acid sequences for entries named in this document (tags omitted). A change or cut given only in a name is not applied to a line headed by its entry.
UniProt Q9UGN5: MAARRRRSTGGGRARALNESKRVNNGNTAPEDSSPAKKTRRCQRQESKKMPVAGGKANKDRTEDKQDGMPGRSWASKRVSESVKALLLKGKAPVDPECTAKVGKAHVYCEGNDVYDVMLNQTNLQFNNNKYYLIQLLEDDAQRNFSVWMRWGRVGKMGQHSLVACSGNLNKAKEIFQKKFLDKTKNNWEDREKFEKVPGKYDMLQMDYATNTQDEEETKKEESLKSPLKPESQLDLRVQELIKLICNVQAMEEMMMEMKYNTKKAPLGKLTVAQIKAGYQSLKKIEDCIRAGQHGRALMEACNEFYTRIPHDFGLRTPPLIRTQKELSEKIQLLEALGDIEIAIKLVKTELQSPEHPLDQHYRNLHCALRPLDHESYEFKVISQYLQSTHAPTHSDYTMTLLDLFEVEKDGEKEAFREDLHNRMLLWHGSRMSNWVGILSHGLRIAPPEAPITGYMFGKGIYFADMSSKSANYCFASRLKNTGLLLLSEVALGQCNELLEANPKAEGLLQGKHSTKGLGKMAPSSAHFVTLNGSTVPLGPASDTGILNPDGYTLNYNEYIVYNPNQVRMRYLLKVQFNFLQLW

Counter-ions that a name gives are not always drawn.

The test has as its target PARP-2 (Homo sapiens (Human), UniProt Q9UGN5). As to the kind of experiment: Fluorescence polarization displacement assay with probe of formula (IP), PARP-2. The class given is binding. To be noted: read-out: PARP-2 (DC50 μM); probe P1. Background: In fluorescence polarisation assays a small probe gives low polarisation when free and higher when bound to something large.

`NC(=O)c1cccc2c1C(=O)N(CCN1CCOCC1)C2` [(5), 2-(2-morpholin-4-yl-ethyl)-3-oxo-2,3-dihydro-1H-isoindole-4-carboxylic Acid Amide]: the DC50 is 1.64 µM. To `NC(=O)c1cccc2c1C(=O)N(CCCN1CCC(N3CCCCC3)CC1)C2` [(26), 2-(3-[1,4′]bipiperidinyl-1′-yl-propyl)-3-oxo-2,3-dihydro-1H-isoindole-4-carboxylic Acid Amide Dihydrochloride] belongs over 10 µM; to `NC(=O)c1cccc2c1C(=O)N(C1CCN(Cc3ccccc3)CC1)C2` [(30), 2-(1-benzyl-piperidin-4-yl)-3-oxo-2,3-dihydro-1H-isoindole-4-carboxylic Acid Amide], over 10 µM. To `NC(=O)c1cccc2c1C(=O)N(CCN1CCCCC1)C2` [(4), 3-oxo-2-(2-piperidin-1-yl-ethyl)-2,3-dihydro-1H-isoindole-4-carboxylic Acid Amide] belongs 1.92 µM; to `CN1CCN(CCCN2Cc3cccc(C(N)=O)c3C2=O)CC1` [(21), 2-[3-(4-methyl-piperazin-1-yl)-propyl]-3-oxo-2,3-dihydro-1H-isoindole-4-carboxylic Acid Amide], over 10 µM.
